# logP (octanol/water) values, as collected for the OPERA models

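The OPERA project collected these measurements from public sources as training and test data for property models. The files give a single number for a compound and property, which may rest on several reports. Method and conditions are not stated for these values. The measured form (salt, isomer or mixture) is not always the one drawn. Some entries may be limits or estimates that an upstream database listed as plain numbers.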

The octanol-water partition coefficient is given as log10; larger values mean a more lipophilic compound.

compound	logP
CCCSc1nc(Cl)c([N+](=O)[O-])c(Cl)n1	2.6
CC1=C(O)C(=O)C(C)O1 (stereo not drawn)	0.95
C=C(C)C(=O)OCCN(C)C	1.13
Cc1ccc(S(C)(=O)=O)cc1[N+](=O)[O-]	0.93
NC1CCCC1	0.83
CCCCCCC=CCCCCCCCC(=O)O	6.58
CCOC(=O)C(=CC=Cc1ccccc1)NC=O	2.91
COC1CCCC1	1.6
O=c1[nH]c2ccccc2n1CCCCl	2.2
Cc1ccc(I)cc1Cc1ccc(-c2ccc(F)cc2)s1	7.5
C[C@]12CC[C@H]3[C@@H]([C@H]4C[C@H]4[C@]4(O)C[C@@H](O)CC[C@]34C)[C@@H]1[C@@H]1C[C@@H]1[C@@]2(O)CCCO	2
C[S+](C)CCC(N)C(=O)O.[Cl-]	0.28
O=C1CCCN1CCO	-1.03
CC(C)NCC(O)c1cc(O)cc(O)c1 (stereo not drawn)	1
Nc1cccc(OCc2ccccc2)c1	2.77
CC1Cc2ccccc2/[N+]1=C\C=C1/N(C)c2ccccc2C1(C)C.[Cl-] (stereo partly drawn)	1
CCOc1ccc(C[C@@H](CNCCN)NC(=O)OCc2ccccc2)cc1.Cl.Cl	-0.06
Cc1ccc(Nc2cccc3c2C(=O)c2c(Nc4ccc(C)cc4)cccc2C3=O)cc1	8.3
CC(C)(C)c1cc(O)c(C(C)(C)C)cc1O	2.44
CC(=O)Nc1cc(S(=O)(=O)O)cc(N)c1O	0.5
ClC1C=CC(Cl)C(Cl)C1Cl (stereo not drawn)	3.08
CC1CCC2(C(=O)OC3OC(COC4OC(CO)C(OC5OC(C)C(O)C(O)C5O)C(O)C4O)C(O)C(O)C3O)CCC3(C)C(=CCC4C5(C)CC(O)C(O)C(C)(CO)C5CCC43C)C2C1C (stereo not drawn)	0.44
C[SiH](Cl)Cl	1.7
CC(=O)OCC(C)(C)C=O	1.36
CC[N+](C)(CC)c1ccccc1.[I-]	-2.22
COC(=O)c1cccc(C(=O)OC)c1	2.1
O=S(=O)([O-])c1cccc2c(/N=N/c3ccc(/N=N/c4ccc(Nc5ccccc5)c5c(S(=O)(=O)[O-])cccc45)c4ccccc34)cccc12.[Na+].[Na+]	-0.211
CCC1OC(C)=C(O)C1=O (stereo not drawn)	0.9
CC(C)(CO)COC(=O)C(C)(C)CO	0.858
COC(=O)c1cc(F)ccc1[N+](=O)[O-]	2.4
CC(C)[C@H]1CC=C(CCC=O)CC1	4.3
Cc1ccccc1NC(=N)Nc1ccccc1C	2.9
O=C1CC(c2cccc(C(F)(F)F)c2)C(=O)N1 (stereo not drawn)	1.26
CC1(C)CC/C(=C\c2ccc(Cl)cc2)C1=O	4.3

Excerpt, the final 5 entries:

| compound | logP |
|---|---|
| COC(=O)c1cc(F)ccc1[N+](=O)[O-] | 2.4 |
| CC(C)[C@H]1CC=C(CCC=O)CC1 | 4.3 |
| Cc1ccccc1NC(=N)Nc1ccccc1C | 2.9 |
| O=C1CC(c2cccc(C(F)(F)F)c2)C(=O)N1 (stereo not drawn) | 1.26 |
| CC1(C)CC/C(=C\c2ccc(Cl)cc2)C1=O | 4.3 |

Data: OPERA 2.9 data sets, kmansouri/OPERA on GitHub.